System: patients with Type 2 diabetes and nephropathy
Experiment: Discontinuation from study therapy and adverse experiences
Settings: n = 751
Experimental: The study involved male and female patients ranging in age from 31 to 70 years diagnosed with Type 2 diabetes and nephropathy; the latter defined as two urine albumin:creatinine ratios from a first morning specimen >300 mg/g (34 mg/mmol) (or a 24-hr urine protein >=500 mg (0.5 g/day)) and two serum creatinine values between 1.3 and 3.0 mg/dL (115 and 265 μmol/L) (lower limit of 1.5 mg/dL (133 μmol/L)for males >60 kg). […] Journal of the Renin Angiotensin Aldosterone System 2000;1(4):328-35. Patients were excluded from the study if diagnosed with Type 1 diabetes or nondiabetic renal disease, including renal artery stenosis. Patients with a history of heart failure, myocardial infarction or coronary artery bypass grafting within 1 month, cerebral vascular accident or percutaneous transluminal coronary angioplasty within 6 months or transient ischemic attacks within 1 year prior to enrollment were excluded.
During the 6-week screening phase, hypertensive patients continued to take their standard antihypertensive therapy. However, in those patients taking angiotensin I converting enzyme inhibitors or angiotensin II receptor antagonists, these agents were discontinued at the beginning of the screening phase and replaced by alternative open-label therapy at the investigator's discretion (diuretic, calcium-channel antagonist, α- or β-blocker, and/or centrally acting agent). […]

2-N-butyl-4-chloro-5-hydroxymethyl-1-[(2′-(1H-tetrazol-5-yl)biphenyl-4-yl)-methyl]imidazole, potassium salt [Losartan]
Laboratory adverse experience causing discontinuation: Serum Creatinine Increased: 12 (1.6) n (%)

Reference: patent US20030073705A1, “Method of treatment” (priority 2001, published 2003)
